Read-outs that look alike come from different tables or passages of the source.

The chains behind the UniProt entries cited, without tags or fusion partners. Where a name states a change or a piece, a line headed by the entry shows the natural chain unless it says otherwise.
UniProt P0A884: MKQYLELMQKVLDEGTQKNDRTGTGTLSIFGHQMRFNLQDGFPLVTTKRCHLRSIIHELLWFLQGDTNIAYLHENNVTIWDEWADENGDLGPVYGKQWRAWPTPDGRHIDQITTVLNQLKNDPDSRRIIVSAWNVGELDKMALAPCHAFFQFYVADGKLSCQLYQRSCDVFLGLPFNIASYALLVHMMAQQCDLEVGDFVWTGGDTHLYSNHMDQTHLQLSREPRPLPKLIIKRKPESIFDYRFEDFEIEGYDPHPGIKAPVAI

Drawing on patent US6962920B2, “Pyrimidine derivatives and methods of making and using these derivatives” (Duquesne University of the Holy Ghost, priority 1992, dated 2005), this text covers IC50 for 4 molecules.

In one assay the target is T1, Pc DHFR (Pneumocystis carinii, UniProt P16184).
T1 sequence (P16184 1-206): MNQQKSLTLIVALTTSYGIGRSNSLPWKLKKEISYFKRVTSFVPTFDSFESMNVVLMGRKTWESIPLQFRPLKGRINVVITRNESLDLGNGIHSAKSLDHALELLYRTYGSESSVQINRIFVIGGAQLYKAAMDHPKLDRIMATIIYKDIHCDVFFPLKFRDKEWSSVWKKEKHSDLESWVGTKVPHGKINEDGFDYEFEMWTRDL
It counts as biochemical.

The next assay deals with T2, RL DHFR (Rattus norvegicus, UniProt Q920D2).
T2 construct: Toxoplasmosis gondii (Tg) and rat liver (RL); from tissue; host or cells: rat liver
T2 sequence (Q920D2 1-187): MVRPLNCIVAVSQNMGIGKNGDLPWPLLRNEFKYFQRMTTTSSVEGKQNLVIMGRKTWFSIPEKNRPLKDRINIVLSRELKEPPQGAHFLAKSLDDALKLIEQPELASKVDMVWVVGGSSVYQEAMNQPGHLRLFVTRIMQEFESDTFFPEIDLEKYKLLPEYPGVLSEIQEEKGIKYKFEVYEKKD
In words: Inhibition of DHFR from rat liver. In kind it is biochemical.

The next assay concerns the target T3, Tg DHFR (Toxoplasma gondii, UniProt Q07422).
T3 sequence (Q07422 1-610): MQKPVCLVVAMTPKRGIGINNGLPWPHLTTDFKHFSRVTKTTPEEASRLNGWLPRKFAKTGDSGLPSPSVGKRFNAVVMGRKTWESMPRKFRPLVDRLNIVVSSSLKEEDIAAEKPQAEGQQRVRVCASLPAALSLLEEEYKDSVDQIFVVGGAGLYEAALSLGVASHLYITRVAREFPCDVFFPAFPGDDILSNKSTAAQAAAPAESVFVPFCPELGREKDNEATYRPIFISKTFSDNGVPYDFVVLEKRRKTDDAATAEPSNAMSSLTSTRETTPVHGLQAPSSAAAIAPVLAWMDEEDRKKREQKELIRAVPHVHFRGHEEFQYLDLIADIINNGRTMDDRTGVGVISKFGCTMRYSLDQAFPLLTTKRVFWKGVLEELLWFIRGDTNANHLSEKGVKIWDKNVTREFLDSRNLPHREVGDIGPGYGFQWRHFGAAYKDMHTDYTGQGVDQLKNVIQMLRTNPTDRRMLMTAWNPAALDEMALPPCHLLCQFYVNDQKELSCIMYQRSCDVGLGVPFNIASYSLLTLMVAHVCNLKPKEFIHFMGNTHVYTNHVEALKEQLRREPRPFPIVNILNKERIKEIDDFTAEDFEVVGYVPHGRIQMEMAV

Assay [1] addresses E-coli thymidylate synthase (ecTS) (Escherichia coli, UniProt P0A884). The experiment in a line: Inhibition of E. coli thymidylate synthase. It counts as biochemical. The following applies: Table 13; read-out: TS IC50, E. Coli.
The mark [2] stands for this setting: Table 16, read-out: RL DHFR IC50.
Where [3] appears, read: Table 25, read-out: Inhibitor Concentrations (IC50) rlDHFR.

As to `COc1ccc(OC)c(NCc2cnc3[nH]c(N)nc(N)c2-3)c1` [Compound 4, 2,4-diamino-5-[(2′,5′-dimethoxyanilino)methyl]pyrrolo[2,3-d]pyrimidine], the IC50 at Pc DHFR (Table 7, read-out: Pc DHFR IC50) came to 45.7 µM.

Regarding `Nc1nc(N)c2c(CNc3ccc(Oc4ccccc4)cc3)coc2n1` [Compound 166, 2,4-Diamino-5-[(4′-phenoxyanilino)methyl]furo[2,3-d]pyrimidine], the IC50 at RL DHFR (setting [2]) was 16.2 µM; on RL DHFR (setting [3]), 16.2 µM; on Pc DHFR (Table 16, read-out: Pc DHFR IC50) it was 8.1 µM; on Pc DHFR (Table 25, read-out: Inhibitor Concentrations (IC50) pcDHFR) it was 8.1 µM.

Take `CN(Cc1coc2nc(N)nc(N)c12)c1cc(Cl)c(Cl)c(Cl)c1` [Compound 172, 2,4-Diamino-5-[(N-methyl-3′,4′,5′-trichloroanilino)methyl]furo[2,3-d]-pyrimidine]: the IC50 at RL DHFR (setting [2]) is 34.3 µM; at RL DHFR (setting [3]), 34.3 µM; at Tg DHFR (read-out: Inhibitor Concentrations (IC50) tgDHFR, Table 25) it was 21.5 µM; on Tg DHFR (read-out: Tg DHFR IC50, Table 16), 21.5 µM.

For the molecule `Cc1nc2ccc(CN(C)c3ccc(C(=O)N[C@@H](CCC(=O)O)C(=O)O)s3)cc2c(=O)[nH]1` [ZD1694, reference compound], the IC50 in assay [1] was determined as 5.3 µM.
